We go through two compounds from patent US20250059217A1, “HETEROCYCLIC COMPOUNDS AND METHODS OF PREPARATION THEREOF” (priority 2021, published 2025).

Chains of the proteins cited; added tags and fusions are not shown.
UniProt P41595, whole entry: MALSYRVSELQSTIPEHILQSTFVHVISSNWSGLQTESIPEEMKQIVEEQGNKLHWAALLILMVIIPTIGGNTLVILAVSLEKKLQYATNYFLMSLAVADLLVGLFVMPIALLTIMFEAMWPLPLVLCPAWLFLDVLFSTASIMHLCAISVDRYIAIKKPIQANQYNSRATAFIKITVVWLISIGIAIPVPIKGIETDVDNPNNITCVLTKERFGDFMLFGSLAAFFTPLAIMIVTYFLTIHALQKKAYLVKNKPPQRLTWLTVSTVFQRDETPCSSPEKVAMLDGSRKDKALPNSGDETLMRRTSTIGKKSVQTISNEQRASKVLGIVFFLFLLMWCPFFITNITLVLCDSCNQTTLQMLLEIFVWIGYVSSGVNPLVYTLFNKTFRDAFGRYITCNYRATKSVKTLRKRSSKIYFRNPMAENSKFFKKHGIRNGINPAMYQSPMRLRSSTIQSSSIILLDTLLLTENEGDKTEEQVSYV

For this experiment, the target named is T1, 5-HT2B receptor (Homo sapiens, UniProt P41595).
T1 construct: expressed in transfected cells; host or cells: HEK293T
In words: Serotonin receptor 5-HT2 functional assay (Gq dissociation BRET or Gq-dependent calcium flux), 5-HT2B. The format is cell-based.

As usually defined, the EC50 is the concentration that produces a half-maximal response. Turning to `CN(C)CCc1c[nH]c2cccc(O)c12` [drawing 39], where the note is “5-HT2B EC50 (nM), Table 5, 5-HT2B receptor, compared with psilocin”, the concentration giving a half-maximal response (EC50) turned out to be 1.1 nM. `CN(C)CCc1c[nH]c2cccc(O)c12` [psilocin, reference compound]: the EC50 (5-HT2B BRET EC50 (nM), Table 4, relative to 4-hydroxytryptamine, at least three replicate trials) came to 1.07 nM.
